Data on 2 molecules can be found in ChEMBL document CHEMBL5032516, “Synthesis and structural characterization of a monocarboxylic inhibitor for GRB2 SH2 domain” (Bioorg Med Chem Lett, 2021).

Protein sequences, listed by entry. Tags and fused reporters are not part of them.
UniProt P62993, whole entry, looked up: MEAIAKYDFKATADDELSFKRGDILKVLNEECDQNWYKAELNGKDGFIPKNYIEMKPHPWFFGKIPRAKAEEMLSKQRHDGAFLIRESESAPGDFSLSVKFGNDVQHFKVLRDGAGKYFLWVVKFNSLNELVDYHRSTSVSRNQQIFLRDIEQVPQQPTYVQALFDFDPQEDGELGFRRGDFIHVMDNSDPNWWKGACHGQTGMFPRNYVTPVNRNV

This assay addresses Growth factor receptor-bound protein 2 (Homo sapiens, UniProt P62993).

For the molecule `NC(=O)C[C@@H]1NC(=O)C2(CCCCC2)NC(=O)C[C@@H](c2ccc(CP(=O)(O)O)cc2)/C=C/C[C@@H](Cc2cccc3ccccc23)CNC1=O`, the ΔTm amounted to 77 °C. Next, `NC(=O)C[C@@H]1NC(=O)C2(CCCCC2)NC(=O)C[C@@H](c2ccc(CC(=O)O)cc2)/C=C/C[C@@H](Cc2cccc3ccccc23)CNC1=O`: 69 °C.

By ΔTm is commonly meant the shift of the melting midpoint relative to a reference.
